Patent US8816078B2, “Acidic gas removal by aqueous amine solvents” (Board of Regents, The University of Texas System, priority 2010, dated 2014)

Test: Thermal degradation in sealed stainless steel cylinders at 150° C., loss of original amine over time
Type: physicochemical
Settings: 4 weeks, α 0.3 moles CO2 per mole alkalinity
Experimental: Samples of each solution were contained in stainless steel, well-sealed cylinders and placed in a forced-convection oven for extended periods of time. The loss of the original amine is tracked over time to determine the rate of thermal degradation.
The thermal degradation of 8 m 1-MPZ at 150° C. was studied. The main degradation products are PZ, 1,4-DMPZ, formyl amides, and formate.
The thermal degradation of a blend of 4 m PZ and 4 m 1-MPZ at 150° C. was previously studied. […] Based on the results of the 8 m 1-MPZ experiment discussed above, 1,4-DMPZ was expected to be produced as a degradation product.
Solutions with varying compositions were placed in thermal cylinders at 150° C. for up to 15 weeks. At this temperature, some degradation will occur, but the conversion between PZ, 1-MPZ, and 1,4-DMPZ should be able to be observed. Three starting solutions were used: 5 m PZ+2 m 1-MPZ+1 m 1,4-DMPZ (5/2/1), 5 m PZ+2.5 m 1-MPZ+0.5 m 1,4-DMPZ (5/2.5/0.5), and 5 m PZ+1.5 m 1-MPZ+[…]. To establish the blend concentrations, it was originally hypothesized that the equilibrium concentration would be 5/2/1. Therefore, that blend, as well as two blends with increased or decreased 1-MPZ concentrations were used and the concentration of 1,4-DMPZ was adjusted to maintain a total concentration of 8 m.

loss of the initial amine: about 6%
Structure (SMILES): CC1CNCCN1 (racemic) [2MPZ, 2-methyl piperazine]
